Source: article PMC3508077 (Bioorganic & medicinal chemistry, 2012)

Legend:
[1] = test system: NAD(P)H:quinone reductase 1 (QR1); experiment: QR1 induction assay in Hepa 1c1c7 murine hepatoma cells; format: cell-based; settings: Hepa 1c1c7 cells; given in nM in the text
[2] = test system: NAD(P)H:quinone reductase 1 (QR1); experiment: cells; settings: Mus musculus, 48 h, read-out: CD (concentration that doubles the activity)

SMILES | CD (concentration that doubles QR1 activity) [1] [nM] | EC (2-fold QR1 activity) [2] [µM]
Clc1cccc(-c2nc(-c3ccccc3)cs2)c1Cl [Compound 9c, 2-(2,3-Dichlorophenyl)-4-phenylthiazole] | 360 | 
COc1cccc(-c2csc(-c3cccc(OC)c3)n2)c1 [Compound 9o] | 87 | > 50
Fc1cccc(-c2nc(-c3ccccc3)cs2)c1F [Compound 9b, 2-(2,3-Difluorophenyl)-4-phenylthiazole] | 192 | > 50
COc1cccc(-c2csc(-c3ccccc3)n2)c1 [Compound 9n, 4-(3-Methoxyphenyl)-2-phenylthiazole] | 117 | > 50
